According to ChEMBL document CHEMBL3992546, “Discovery and optimization of benzimidazole derivatives as a novel chemotype of farnesoid X receptor (FXR) antagonists” (Bioorg Med Chem, 2017):

Molecular target: T1, Bile acid receptor (Homo sapiens) (UniProt Q96RI1)
T1 sequence (whole entry): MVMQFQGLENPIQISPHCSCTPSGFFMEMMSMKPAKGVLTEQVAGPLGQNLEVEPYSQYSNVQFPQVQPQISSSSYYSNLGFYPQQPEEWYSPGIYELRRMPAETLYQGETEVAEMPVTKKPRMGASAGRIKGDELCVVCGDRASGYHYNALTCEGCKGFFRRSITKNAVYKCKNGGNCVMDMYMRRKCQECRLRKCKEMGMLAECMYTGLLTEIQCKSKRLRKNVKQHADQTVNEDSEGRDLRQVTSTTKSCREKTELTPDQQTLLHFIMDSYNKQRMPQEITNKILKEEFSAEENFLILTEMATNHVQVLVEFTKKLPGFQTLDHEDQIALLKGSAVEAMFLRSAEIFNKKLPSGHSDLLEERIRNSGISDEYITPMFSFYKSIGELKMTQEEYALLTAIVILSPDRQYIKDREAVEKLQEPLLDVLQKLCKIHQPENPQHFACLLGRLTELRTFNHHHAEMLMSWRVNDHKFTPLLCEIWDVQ
Assay: Potency index, ratio of (Z)-guggulsterone IC50 to compound IC50 for inhibition of GW4064-induced fluorecein-labeled SRC2-2 coactivator recruitment in GST-tagged FXR LBD (unknown origin) by Lanthascreen TR-FRET assay

Question: For `C[C@@H](c1nc2ccc(C(=O)O)cc2n1C)N1C(=O)CN(c2ccc(Oc3ccccc3)cc2)C1=O`, which Ratio IC50 is on record?
Answer: 4.3
